# Apparent affinities of Ab-14 variants for a coronavirus HR2 peptide

Antigen: PDVDLGDISGINAS, a 14-residue peptide of the SARS-CoV-2 spike HR2 region.

Parent: Ab-14, a human scFv built as VH, the linker GGGGSGGGGSGGGGS, VL. Only the CDRs of the heavy chain vary.
VH: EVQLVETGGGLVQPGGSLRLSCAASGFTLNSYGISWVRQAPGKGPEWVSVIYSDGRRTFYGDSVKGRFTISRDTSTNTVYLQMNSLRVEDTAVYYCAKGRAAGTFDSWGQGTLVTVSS
VL: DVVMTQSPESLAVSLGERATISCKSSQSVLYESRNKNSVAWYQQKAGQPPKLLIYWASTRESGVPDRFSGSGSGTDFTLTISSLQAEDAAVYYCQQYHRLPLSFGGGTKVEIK

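Phage display of a naive human antibody library on the peptide gave the parent. Library AAYL49 holds single substitutions and randomly drawn double and triple substitutions in the CDRs. In AlphaSeq, yeast of one mating type display the scFv and yeast of the other type display the target. Mating (16 h, 30 °C) was followed by selection of diploids and sequencing of their barcodes. The ratio of observed to expected reads was calibrated, replicate by replicate, on BCL2-family standards whose Kd was known from biolayer interferometry. The assay was run in three technical replicates.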

The parent's heavy chain CDRs are GFTLNSYGIS, VIYSDGRRTFYGDSVK, GRAAGTFDS; each variant's own CDRs replace them letter for letter.
This list gathers variants with a substitution at T104 (VH, numbered from residue 1).
Each Kd is an estimate from the mating assay, the geometric mean of the replicates in which the pair was seen; lower is stronger.
An entry "no signal" has no value in the source: the pair was not observed among the diploids in any replicate. This suggests poor binding but is not conclusive.
Entries are sorted by rising average, undetected variants last.
Nonspecific signal, from three strains lacking the peptide, appeared in 15% of pairings of library AAYL49, centred on 11 µM (5% of these signals below 680 nM); values are not corrected for it.
For reference, the parent read 4.4 nM as the reference entry and 13 µM (one replicate of three) as a member of this library.

| CDR-H1 | CDR-H2 | CDR-H3 | Kd (apparent) | replicates with signal |
|---|---|---|---|---|
| GFTLNSYGIS | VIYSDGRRTFYGDSFK | GRAAGCFDS | 30 nM | 3 of 3 |
| GFTLNSYGIS | VIYSDGDRTFYYDSVK | GRAAGRFDS | 44 nM | 1 of 3 |
| WFTLNSYGIS | VIYSDGRRTFYGDSVK | GRAALDFDS | 120 nM | 2 of 3 |
| GFTLNNYGIS | VIYSDGRRTDYGDSVK | GRAAGWFDS | 260 nM | 1 of 3 |
| GFTLNSYGIS | VIYSDGRRNFYGDSVK | GRAAGRFDS | 290 nM | 3 of 3 |
| GFTLNSYGIS | VIYSDGRRYFYGDSVK | GRAAGFFDQ | 470 nM | 3 of 3 |
| GFTLNSYGIS | VIYSDGLRTFYGDSVK | GDAAGCFDS | 480 nM | 3 of 3 |
| GFTLNSYGIS | VIYSDGRRTFYGDSVK | GRAAGYMDS | 480 nM | 3 of 3 |
| GFTLNIYGIS | VIRSDGRRTFYGDSVK | GRAAGRFDS | 980 nM | 2 of 3 |
| GFTLNSYGIS | PIYSDGRRTFYGDSVK | GRAGGFFDS | 5.3 µM | 3 of 3 |
| GFTLNSYEIS | VIYSDGRRTFYGDGVK | GRAAGVFDS | 7.8 µM | 1 of 3 |
| GFTLNSYGIS | VIYSDGRRTFYGPSVN | GRAAGQFDS | 12 µM | 2 of 3 |
| GFTPNSYGIS | VDYSDGRRTFYGDSVK | GRAAGWFDS | 15 µM | 1 of 3 |
| GFTLNSYGIQ | VIYSDGRRTFYGDSVK | GRAASSFDS | 17 µM | 2 of 3 |
| GFTLNSYGIS | VIYSDGRDTFYGDSVK | GRCAGPFDS | 36 µM | 1 of 3 |
| GFTLNSYGIS | VSYSDGRRTFYGDSTK | GRAAGRFDS | 42 µM | 2 of 3 |
| GFTLNSYGIS | TIYSDGRRTFYGDSVK | GRAAGRFDL | 53 µM | 1 of 3 |
| GFTLNSYGIY | VIYSDGRVTFYGDSVK | GRAAGFFDS | 62 µM | 1 of 3 |
| GQTLNSYGIS | VIYSDGRRTFYGDCVK | GRAAGPFDS | 220 µM | 1 of 3 |
| GFTLNSYGIS | VIYSEGRRTEYGDSVK | GRAAGVFDS | 300 µM | 2 of 3 |
| GFTLNSYGIS | VIYSDGRHTHYGDSVK | GRAAGKFDS | no signal | 0 of 3 |
| GFTLNSYGIS | VIYSPGRRTFYGDSVK | GRAAYVFDS | no signal | 0 of 3 |
| GFTLNSYGIS | VIYSDGRRTFYGDSVK | GRAAHHFPS | no signal | 0 of 3 |
| GFTLNSYGIV | VIYSDGRRTFYGDSVV | GRAAGCFDS | no signal | 0 of 3 |
| GFTLNSYGIS | VQYSDGRRTKYGDSVK | GRAAGNFDS | no signal | 0 of 3 |
| GFTLNSYGIP | VIYSDSRRTFYGDSVK | GRAAGLFDS | no signal | 0 of 3 |
| GFTLNSYGIS | VIYSDWRRTFYGDSVH | GRAAGHFDS | no signal | 0 of 3 |
| GFTLTSYGIS | VIYSDGRRTFYGMSVK | GRAAGQFDS | no signal | 0 of 3 |
| GFTLNSYGIS | VIYSDGRRYFYGDSVK | GRAIGRFDS | no signal | 0 of 3 |
| GFTLNLYGIS | VIWSDGRRTFYGDSVK | GRAAGRFDS | no signal | 0 of 3 |
| GFTLNSYGIS | VIYSDGRRPFYGDSVK | GRACGNFDS | no signal | 0 of 3 |
| GAELNSYGIS | VIYSDGRRTFYGDSVK | GRAAGCFDS | no signal | 0 of 3 |
| GFTLNSYGIS | VKYSDGRRTFYGDSYK | GRAAGNFDS | no signal | 0 of 3 |

The 5 strongest on average among those seen in every replicate, once more:

| CDR-H1 | CDR-H2 | CDR-H3 | Kd (apparent) | replicates with signal |
|---|---|---|---|---|
| GFTLNSYGIS | VIYSDGRRTFYGDSFK | GRAAGCFDS | 30 nM | 3 of 3 |
| GFTLNSYGIS | VIYSDGRRNFYGDSVK | GRAAGRFDS | 290 nM | 3 of 3 |
| GFTLNSYGIS | VIYSDGRRYFYGDSVK | GRAAGFFDQ | 470 nM | 3 of 3 |
| GFTLNSYGIS | VIYSDGLRTFYGDSVK | GDAAGCFDS | 480 nM | 3 of 3 |
| GFTLNSYGIS | VIYSDGRRTFYGDSVK | GRAAGYMDS | 480 nM | 3 of 3 |

The measurements come from Engelhart et al. 2022 (doi:10.1038/s41597-022-01779-4) through the FLAb antibody collection.